# Laboratory results published in patent US20090143279A1 (priority 2007, published 2009).
# Values joined by “and” are separate entries in the source; they are usually repeats but may differ in a detail not shown here. Equal entries are not always repeated. Where two headings read alike, the source gives them in different places.
# Test system: cellular ATP levels
Compound,ATP,further results
mepartricin,,"ATP (composite Z-score) (Conc 20 μM, normalized score vs mock-treated (DMSO) wells): −0.392"
[O-][n+]1ccccc1[S-].[O-][n+]1ccccc1[S-].[Zn+2] [pyrithione zinc],,ATP (composite Z-score vs DMSO): −8.322
CN1CCC[C@H]1c1cccnc1 [nicotine],0.808,
NC(N)=Nc1nc(CSCCC(N)=NS(N)(=O)=O)cs1 [famotidine],1.389,
C[C@]12CC[C@@H](O)C[C@H]1CC[C@@H]1[C@@H]2CC[C@]2(C)C(=O)CC[C@@H]12 [3-alpha-hydroxy-5-beta-androstan-17-one],0.314,
(−)-asarinin,,"ATP (composite Z-score vs DMSO, Conc 20 μM): 0.276"
pyrantel tartrate,0.280,
CC(=O)[O-].CC(=O)[O-].[Cd+2] [cadmium acetate],0.954,
NCCCCN [putrescine],1.023,
CN1CCCN=C1/C=C/c1cccs1 [pyrantel pamoate],−0.426,
C[n+]1ccccc1/C=N/O [pralidoxime],0.594 and 0.365,
L-methionine sulfoximine,0.202,
COc1ccc2cc([C@@H](C)C(=O)[O-])ccc2c1.[Na+] [(R)-naproxen sodium salt],0.405,
Oc1cccc2cccnc12 [oxyquinoline],0.574,
trisodium ethylenediamine tetracetate,0.328,
NCCc1ccc(O)c(O)c1 [dopamine],0.276,
COC(=O)[C@H](c1ccccc1Cl)N1CCc2sccc2C1 [clopidogrel],1.367,
